## Ab-14 heavy chain CDR variants: yeast mating affinities

Source: Engelhart et al. 2022 (doi:10.1038/s41597-022-01779-4), MIT Lincoln Laboratory and A-Alpha Bio; data file from the FLAb repository.

Target: peptide PDVDLGDISGINAS, taken from heptad repeat 2 (HR2) of SARS-CoV-2 spike.

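The parent was found by panning a naive human phage display library on the peptide. Library AAYL49 holds single substitutions and randomly drawn double and triple substitutions in the CDRs. In AlphaSeq, yeast of one mating type display the scFv and yeast of the other type display the target. Pairs that bind mate more often; barcode pairs of the diploids are counted by sequencing. Each replicate has its own calibration line, from reference interactions of the BCL2 family. There are three technical replicates.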

The variants keep the light chain, the linker and the frameworks of Ab-14 (scFv order VH, a (GGGGS)3 linker, VL).
VH: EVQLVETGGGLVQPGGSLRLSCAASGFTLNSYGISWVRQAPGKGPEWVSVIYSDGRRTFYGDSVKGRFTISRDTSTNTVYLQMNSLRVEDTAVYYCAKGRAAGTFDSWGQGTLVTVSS
VL: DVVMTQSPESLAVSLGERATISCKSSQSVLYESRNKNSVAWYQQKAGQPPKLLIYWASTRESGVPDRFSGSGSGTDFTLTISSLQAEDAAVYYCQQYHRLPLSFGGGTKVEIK

The parent's heavy chain CDRs are GFTLNSYGIS, VIYSDGRRTFYGDSVK, GRAAGTFDS; each variant's own CDRs replace them letter for letter.
All variants listed here change F27 of the VH, counted from its first residue.
Kd is apparent (estimated from mating counts) and averaged on the log scale over replicates with a signal. Smaller is tighter.
An entry "not detected" has no value in the source: the pair was not observed among the diploids in any replicate. This suggests poor binding but is not conclusive.
Parent in this assay: reference entry 4.4 nM, copy in this library 13 µM (one replicate of three).
Empty control strains, which show no peptide, gave a signal in 15% of pairings with library AAYL49; the median was 11 µM and 95% of these signals were weaker than 680 nM. No background was subtracted.

| CDR-H1 | CDR-H2 | CDR-H3 | Kd | seen in |
|---|---|---|---|---|
| GQTLNSYGIS | VIHSDGRRTFYGASVK | GRAAGTFDS | not detected | 0 of 3 |
| GPTLNSYGIS | VIYSDGRRTFYGDSVK | GRAAGTFDS | 20 nM | 3 of 3 |
| AHTLNSYGIS | VIYSDPRRTFYGDSVK | GRAAGTFDS | not detected | 0 of 3 |
| GPTLNSYGIS | VIYSDGRRTFYGDSVK | GTAAGTFDS | 22 µM | 2 of 3 |
| GVTLNSYGPS | VIISDGRRTFYGDSVK | GRAAGTFDS | 29 µM | 2 of 3 |
| GGTLNSYGIS | VIYSDGRRTFYGDSVK | KRAAKTFDS | 50 nM | 3 of 3 |
| GNTLNSNGDS | VIYSDGRRTFYGDSVK | GRAAGTFDS | 120 µM | 1 of 3 |
| GHTLNSYGQS | QIYSDGRRTFYGDSVK | GRAAGTFDS | not detected | 0 of 3 |
| GYTLNSYGIS | VIYSDGRRTFKGDSVK | GRAAGTFYS | not detected | 0 of 3 |
| GLTLNSYGIS | VIYSDGRRTFYSDSVK | GRAKGTFDS | not detected | 0 of 3 |
| GNTLNSYGIS | VIYSDGRRTFYGDSSK | GRAAWTFDS | not detected | 0 of 3 |
| GWTLNSYGIS | CIYSDGRRTFYGDSTK | GRAAGTFDS | not detected | 0 of 3 |
| GYTLNSYGIS | VIYSVGRRTFYGDLVK | GRAAGTFDS | 13 µM | 1 of 3 |
| PWTLNSYGIS | VIYSDGRRTFYGDSVK | GRAAGFFDS | 980 nM | 1 of 3 |
| GKTLNSYGIS | VIYSDNRDTFYGDSVK | GRAAGTFDS | not detected | 0 of 3 |
| LCTLNSQGIS | VIYSDGRRTFYGDSVK | GRAAGTFDS | not detected | 0 of 3 |
| GLTLNSYGIS | VIYSDGCRTFYGDSVK | GSAAGTFDS | 400 nM | 3 of 3 |
| GSVLNSYGIS | VIYSDGRRTFYGDSVK | GRAAGTFDS | 12 nM | 3 of 3 |
| GWTWNSYGIS | VIYSDGRRTFYGDSVK | GRAAGTFDS | 23 µM | 2 of 3 |
| GHTLNSYGIS | VIYSYGRRSFYGDSVK | GRAAGTFDS | 20 µM | 2 of 3 |
| GETLNSMGIW | VIYSDGRRTFYGDSVK | GRAAGTFDS | 52 nM | 3 of 3 |
| GRTLNSYGIS | VIYSDGRRTFVGYSVK | GRAAGTFDS | 5.9 µM | 2 of 3 |
| GQTLNSYGIS | VIYSDGRYTFYGDSVK | GRMAGTFDS | 4.2 µM | 1 of 3 |
| GMTLNSYSIS | VIYSDGRRTFYGDSVK | HRAAGTFDS | not detected | 0 of 3 |
| GRTLNSYGIS | VIYKDGRRTFYGDSVK | GRAAGTFTS | 32 µM | 2 of 3 |
| GATLNSYGIS | VKYSDGRRTFYGDSVK | CRAAGTFDS | not detected | 0 of 3 |
| GQTLNSYGIS | VIYSDCYRTFYGDSVK | GRAAGTFDS | not detected | 0 of 3 |
| GHTLNSYGIS | NIYSDGRRTFPGDSVK | GRAAGTFDS | 4.6 µM | 1 of 3 |
| GGTLNSYGIS | VIYSDGRRTFYGDTVK | GRAAGQFDS | 2.2 µM | 3 of 3 |
| GETLNSSGIS | VIYSDGRGTFYGDSVK | GRAAGTFDS | not detected | 0 of 3 |
| GYTLNSYGIS | VIYSDGVRTFYGDQVK | GRAAGTFDS | 560 nM | 3 of 3 |
| GYTLNSYGIS | VIYSDLIRTFYGDSVK | GRAAGTFDS | not detected | 0 of 3 |
| GLTLNQYGIS | VIYSDGRRTFYGDSVK | GRQAGTFDS | 2.4 µM | 2 of 3 |
| GSTLNSYGIS | VIYSDGRRTFYGDVVK | GRAAGTFAS | not detected | 0 of 3 |
| GYTLNSYGIL | VIYSDGRRTFYGDSVK | LRAAGTFDS | 13 µM | 1 of 3 |
| GETVNSYGIS | VIYSDGRRTFYGISVK | GRAAGTFDS | 79 µM | 3 of 3 |
| GQTLNSYGIS | GIYSDGMRTFYGDSVK | GRAAGTFDS | not detected | 0 of 3 |
| GMTLNWYGIS | VIYSDGRRTFYGDSVK | GRAAGTFDS | 85 nM | 3 of 3 |
| GPTLNSYGIS | VIPTDGRRTFYGDSVK | GRAAGTFDS | 9.7 µM | 1 of 3 |
| GETLNSYGIE | VIYSDGMRTFYGDSVK | GRAAGTFDS | not detected | 0 of 3 |
| GNTLYSYGIS | VIYSDGRRTIYGDSVK | GRAAGTFDS | 42 µM | 1 of 3 |
| GNTLLSYGIS | VIYSDGRRTFYGDSVK | RRAAGTFDS | 1.6 µM | 3 of 3 |
| GSTLNSYGIS | VIYSDGWRTFYGDSVK | GRAAGTFAS | not detected | 0 of 3 |
| GRTLNSHGIS | VIYSDGRRTFYGLSVK | GRAAGTFDS | 4.4 µM | 2 of 3 |
| GTTENSYGIS | VIYSDGQRTFYGDSVK | GRAAGTFDS | 22 µM | 2 of 3 |
| GETLNSYGIS | VIYSDGRNTFYGDSVK | GRAAGTFDS | 12 µM | 1 of 3 |
| GHTLNSYGLS | VIYSDGRRTFYGDSVK | GRAAGTYDS | not detected | 0 of 3 |
| GHTLNSYGQS | VIYNDGRRTFYGDSVK | GRAAGTFDS | not detected | 0 of 3 |
| GATLNSYGIM | VIYSDGRRTFYGDSVK | GRAAGGFDS | 2.7 µM | 1 of 3 |
| GMTLNSYGIS | VIYSDGRRAFYGDSVK | GRAAGTFDS | not detected | 0 of 3 |
| GYTLNSYGIS | VIVSDGRRTFYGDSVK | GRAAGTFDK | not detected | 0 of 3 |
| GKTLNSYGIS | VIYYDGRRTFYGDSVK | PRAAGTFDS | 3.0 µM | 1 of 3 |
| GDTLNSYGIS | VIYSHGRRTFYGDSVK | GRADGTFDS | not detected | 0 of 3 |
| GMTLNSYGIS | VIYSDGRRTFYCDSVK | GRAAGTPDS | not detected | 0 of 3 |
| GYTLNSYFIS | VIYSDGRRTFYGDSVK | GRAAGTFDS | 45 nM | 3 of 3 |
| GETLNSYGIS | VIYSDGRRTFYGDNVK | GRAAGTPDS | not detected | 0 of 3 |
| GHTLNSYGIS | VRYSDGRRTFYGDSVK | GRAAGTFDS | 78 µM | 2 of 3 |
| GMTLNSYGIS | VIYSDGRRTFYGDTVK | GRAAGTFDW | not detected | 0 of 3 |
| GSTLNSYGIS | VIYSDGRRTFDGDSVK | GRCAGTFDS | not detected | 0 of 3 |
| GWYLNSYGIS | VIYSDGNRTFYGDSVK | GRAAGTFDS | 16 µM | 1 of 3 |
| GCTLNSSGIS | VIYSDGRRTFYGDSVK | GRAAGTFAS | not detected | 0 of 3 |
| GDTLNSYGIS | VIYSDGRRTFYGESVK | GWAAGTFDS | not detected | 0 of 3 |
| GQYLNSYGIS | VIYSDGRRTFYGDSVK | GRAARTFDS | not detected | 0 of 3 |
| GPTLNSYGIS | VIYSDGRRTFYGDSVN | GRAAGTFDP | not detected | 0 of 3 |
| GATLNSYGIQ | VIYHDGRRTFYGDSVK | GRAAGTFDS | not detected | 0 of 3 |
| GTTLNSYGIS | VIYGDGRRTFYDDSVK | GRAAGTFDS | 16 µM | 3 of 3 |
| GNTLNSYGIS | VIYSDGRRTFYGDSVK | GRAAGTFDS | 99 nM | 3 of 3 |
| GRTLNSYGIS | VIYSDGGRTFYGDSVK | GAAAGTFDS | 800 nM | 2 of 3 |
| INTLNSYGIS | VIYSDGRRTFYGDSVK | GRAAGTFDS | 93 nM | 3 of 3 |
| GMTLNSYGIS | VIYSDGRRTFYGDSVK | GRAAGTFPS | not detected | 0 of 3 |

For reference, 7 entries of the list once more:

CDR-H1	CDR-H2	CDR-H3	Kd	seen in
GHTLNSYGQS	QIYSDGRRTFYGDSVK	GRAAGTFDS	not detected	0 of 3
GPTLNSYGIS	VIPTDGRRTFYGDSVK	GRAAGTFDS	9.7 µM	1 of 3
GLTLNQYGIS	VIYSDGRRTFYGDSVK	GRQAGTFDS	2.4 µM	2 of 3
GTTENSYGIS	VIYSDGQRTFYGDSVK	GRAAGTFDS	22 µM	2 of 3
GPTLNSYGIS	VIYSDGRRTFYGDSVN	GRAAGTFDP	not detected	0 of 3
GRTLNSYGIS	VIYKDGRRTFYGDSVK	GRAAGTFTS	32 µM	2 of 3
INTLNSYGIS	VIYSDGRRTFYGDSVK	GRAAGTFDS	93 nM	3 of 3